# Assay results from PubChem BioAssay (NCI).
# Several values for one entry are separate records, joined by “and”; a condition that tells them apart may be missing. Equal values may be shown once. The entries are a selection whose mix differs from that of the whole data set.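 Assay: single dose, 48 h. Readout: percent growth (0 = no net growth; negative = cell death). Active: <10.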 Activity calls are given as the source filed them.
# Experiments:
# Assay in all cases: NCI-60 one-dose screen, 48 h (100 = growth as untreated, 0 = no growth, -100 = all killed)
# Details in all cases: 10 µM unless noted
# MOLT-4 leukemia = tested on: MOLT-4 leukemia
# SR leukemia = tested on: SR leukemia
# RPMI-8226 leukemia = tested on: RPMI-8226 leukemia
# OVCAR-8 ovarian = tested on: OVCAR-8 ovarian
# OVCAR-5 ovarian = tested on: OVCAR-5 ovarian
# OVCAR-4 ovarian = tested on: OVCAR-4 ovarian
# SK-OV-3 ovarian = tested on: SK-OV-3 ovarian
# IGROV1 ovarian = tested on: IGROV1 ovarian
# OVCAR-3 ovarian = tested on: OVCAR-3 ovarian
# HS 578T breast = tested on: HS 578T breast
# NCI/ADR-RES ovarian = tested on: NCI/ADR-RES ovarian
# T-47D breast = tested on: T-47D breast
# BT-549 breast = tested on: BT-549 breast
# MDA-MB-435 melanoma = tested on: MDA-MB-435 melanoma
# SW-620 colon = tested on: SW-620 colon
# MCF7 breast = tested on: MCF7 breast
# HCT-116 colon = tested on: HCT-116 colon
# HCC-2998 colon = tested on: HCC-2998 colon
# KM12 colon = tested on: KM12 colon
Compound,growth (MOLT-4 leukemia),growth (SR leukemia),growth (RPMI-8226 leukemia),growth (OVCAR-8 ovarian),growth (OVCAR-5 ovarian),growth (OVCAR-4 ovarian),growth (SK-OV-3 ovarian),growth (IGROV1 ovarian),growth (OVCAR-3 ovarian),growth (HS 578T breast),growth (NCI/ADR-RES ovarian),growth (T-47D breast),growth (BT-549 breast),growth (MDA-MB-435 melanoma),growth (SW-620 colon),growth (MCF7 breast),growth (HCT-116 colon),growth (HCC-2998 colon),growth (KM12 colon)
NC(=S)N/N=C/c1ccc(N(CCF)CCCl)cc1,inactive: 71.4%,inactive: 76.3%,inactive: 79.6%,inactive: 84.6%,inactive: 109%,inactive: 82.7%,inactive: 103%,inactive: 89.8%,inactive: 106%,inactive: 109%,inactive: 100%,inactive: 60.1%,inactive: 124%,inactive: 87.9%,inactive: 91.8%,inactive: 73.2%,inactive: 91%,inactive: 93.3%,inactive: 108%
O=P1(N(CCCl)CCCl)OCCCN1CCCl (stereo not drawn),inactive: 115%,inactive: 113%,inactive: 102%,inactive: 105%,inactive: 101%,inactive: 112%,inactive: 106%,inactive: 132%,inactive: 114%,inactive: 101%,inactive: 112%,inactive: 110%,inactive: 100%,inactive: 116%,inactive: 103%,inactive: 122%,inactive: 106%,inactive: 110%,inactive: 106%
S=P(Cl)(N1CCCCCC1)N1CC1 (stereo not drawn),inactive: 103%,inactive: 102%,inactive: 93.3%,inactive: 102%,inactive: 108%,inactive: 103%,inactive: 130%,inactive: 96%,inactive: 119%,inactive: 105%,inactive: 107%,inactive: 94.3%,inactive: 106%,inactive: 103%,inactive: 105%,inactive: 102%,inactive: 98.3%,inactive: 106%,inactive: 103%
COP(=O)(OC)N1CC1c1ccccc1 (stereo not drawn),inactive: 104%,inactive: 61.6%,inactive: 106%,inactive: 101%,inactive: 104%,inactive: 108%,inactive: 114%,inactive: 120%,inactive: 125%,inactive: 104%,inactive: 104%,inactive: 115%,inactive: 83.4%,inactive: 105%,inactive: 99.3%,inactive: 104%,inactive: 105%,inactive: 103%,inactive: 107%
CN(CCCl)CCC(=O)c1ccccc1,inactive: 83.4%,inactive: 101%,inactive: 50.3%,inactive: 101%,inactive: 97.8%,inactive: 99.6%,inactive: 115%,inactive: 107%,inactive: 102%,inactive: 95.2%,inactive: 104%,inactive: 95.8%,inactive: 103%,inactive: 97.5%,inactive: 92.6%,inactive: 66.9%,inactive: 97.2%,inactive: 105%,inactive: 90.1%
ClCC1CS1 (stereo not drawn),inactive: 91.1%,inactive: 83.2%,inactive: 98.6%,inactive: 103%,inactive: 111%,inactive: 101%,inactive: 103%,inactive: 101%,inactive: 108%,inactive: 119%,inactive: 106%,inactive: 94.6%,inactive: 97.1%,inactive: 106%,inactive: 105%,inactive: 88.9%,inactive: 96.5%,inactive: 116%,inactive: 103%
O=[N+]([O-])c1ccc(-c2cc([N+](=O)[O-])c(O)c([N+](=O)[O-])c2)cc1,inactive: 99.6% and inactive: 90.9%,inactive: 98.4% and inactive: 81.5%,inactive: 107% and inactive: 96%,inactive: 107% and inactive: 114%,inactive: 96.8% and inactive: 107%,inactive: 112% and inactive: 100%,inactive: 100% and inactive: 104%,inactive: 107% and inactive: 126%,inactive: 115% and inactive: 110%,inactive: 106%,inactive: 101%,inactive: 92.2% and inactive: 98.9%,inactive: 106% and inactive: 98.6%,inactive: 104% and inactive: 107%,inactive: 103% and inactive: 105%,inactive: 108% and inactive: 104%,inactive: 112% and inactive: 99.9%,inactive: 94.9% and inactive: 136%,inactive: 105% and inactive: 107%
O=C(O)C(=O)c1ccc(N(CCCl)CCCl)cc1,inactive: 79%,inactive: 80.8%,inactive: 106%,inactive: 101%,inactive: 105%,inactive: 110%,inactive: 104%,inactive: 101%,inactive: 110%,inactive: 110%,inactive: 108%,inactive: 98.7%,inactive: 101%,inactive: 112%,inactive: 108%,inactive: 111%,inactive: 104%,inactive: 115%,inactive: 103%
[N-]=[N+]=NS(=O)(=O)c1ccc([N+](=O)[O-])cc1,inactive: 106%,inactive: 103%,inactive: 108%,inactive: 99.5%,inactive: 113%,inactive: 101%,inactive: 126%,inactive: 114%,inactive: 105%,inactive: 93.7%,inactive: 103%,inactive: 110%,inactive: 104%,inactive: 95.9%,inactive: 101%,inactive: 98.9%,inactive: 102%,inactive: 103%,inactive: 107%
COc1cccc([As]=O)c1 (stereo not drawn),active: -37.1%,active: -26.2%,active: -49.4%,active: -92.9%,active: -86.6%,active: -85.7%,active: -98%,active: -52.2%,active: -92.1%,active: 3.89%,active: -23.9%,active: -30.2%,active: -94.4%,active: -89.7%,active: -34.3%,active: -46.3%,active: -82.2%,active: -95.4%,active: -81.5%
O=P(Cl)(N1CCCCCC1)N1CCCCCC1,inactive: 102%,inactive: 104%,inactive: 108%,inactive: 98.9%,inactive: 104%,inactive: 113%,inactive: 123%,inactive: 107%,inactive: 116%,inactive: 113%,inactive: 106%,inactive: 106%,inactive: 100%,inactive: 105%,inactive: 106%,inactive: 98.8%,inactive: 104%,inactive: 111%,inactive: 99.6%
Fc1cccc(CNCCCl)c1,inactive: 104%,inactive: 111%,inactive: 99.4%,inactive: 109%,inactive: 108%,inactive: 107%,inactive: 111%,inactive: 112%,inactive: 99.2%,inactive: 123%,inactive: 110%,inactive: 106%,inactive: 113%,inactive: 112%,inactive: 118%,inactive: 106%,inactive: 111%,inactive: 116%,inactive: 96.6%
N/C(=N/[N+](=O)[O-])N(CCBr)N=O,inactive: 90.5%,inactive: 81.9%,inactive: 104%,inactive: 97.4%,inactive: 105%,inactive: 120%,inactive: 98.9%,inactive: 100%,inactive: 97.3%,inactive: 107%,inactive: 101%,inactive: 89.4%,inactive: 94.2%,inactive: 92.6%,inactive: 104%,inactive: 96.8%,inactive: 89.5%,inactive: 96.7%,inactive: 94.5%
COc1cccc(OC)c1N(CCCl)CCCl,inactive: 93.4%,inactive: 96.1%,inactive: 103%,inactive: 113%,inactive: 96.2%,inactive: 98.4%,inactive: 102%,inactive: 90.1%,inactive: 106%,inactive: 99.7%,inactive: 96.7%,inactive: 89%,inactive: 100%,inactive: 102%,inactive: 100%,inactive: 87.7%,inactive: 105%,inactive: 104%,inactive: 102%
CC(=O)Nc1ccc([As](=O)(O)O)cc1,inactive: 116%,inactive: 102%,inactive: 102%,inactive: 107%,inactive: 101%,inactive: 111%,inactive: 117%,inactive: 92.6%,inactive: 108%,inactive: 98.5%,inactive: 112%,inactive: 105%,inactive: 109%,inactive: 77.3%,inactive: 103%,inactive: 105%,inactive: 98.9%,inactive: 110%,inactive: 101%
CC(C)N(CCCl)/N=N/c1nc2nc[nH]c(=O)c2[nH]1,inactive: 115%,inactive: 100%,inactive: 111%,inactive: 105%,inactive: 102%,inactive: 106%,inactive: 99.7%,inactive: 103%,inactive: 108%,inactive: 123%,inactive: 102%,inactive: 94.1%,inactive: 108%,inactive: 108%,inactive: 104%,inactive: 105%,inactive: 110%,inactive: 98.2%,inactive: 107%
CN(CCCl)/N=N/c1nc2c([nH]1)c(=O)n(C)c(=O)n2C,inactive: 91.7%,inactive: 94.4%,inactive: 108%,inactive: 102%,inactive: 103%,inactive: 106%,inactive: 85.5%,inactive: 107%,inactive: 107%,inactive: 95.4%,inactive: 103%,inactive: 84.1%,inactive: 85.4%,inactive: 99.4%,inactive: 102%,inactive: 92.9%,inactive: 90.7%,inactive: 95.6%,inactive: 99.8%
